# In patent US10934282B2, “Heteroaromatic modulators of the retinoid-related orphan receptor gamma” (LEO PHARMA A/S, priority 2016, dated 2021):
# The chains behind the UniProt entries cited, without tags or fusion partners. A line that says so, or that is headed by a name, gives the form on record, which may keep a tag or linker. Residues count along the entry.
# UniProt P51449, 265-518 with tags or gaps: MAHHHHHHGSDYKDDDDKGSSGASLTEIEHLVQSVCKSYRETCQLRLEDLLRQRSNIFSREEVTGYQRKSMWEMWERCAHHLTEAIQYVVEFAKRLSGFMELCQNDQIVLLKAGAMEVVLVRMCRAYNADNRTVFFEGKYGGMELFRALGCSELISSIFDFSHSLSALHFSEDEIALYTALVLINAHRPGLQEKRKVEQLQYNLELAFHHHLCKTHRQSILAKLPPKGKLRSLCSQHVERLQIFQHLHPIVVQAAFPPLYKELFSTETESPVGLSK
# Columns and labels:
# [1] = tested on: IL-17A levels in human peripheral blood; test: Human whole blood IL-17A assay; type: cell-based; settings: read-out: Human Whole blood IL-17A; EC50, Staphylococcus enterotoxin B 300 ng/mL, 3 days, alpha-LISA
# [2] = target: human RORgt nuclear receptor (RORgT ligand binding domain protein) (Homo sapiens, UniProt P51449); test: ROR-gamma binding assay (Scintillation Proximity Assay, displacement of [3H]-25-hydroxycholesterol); settings: read-out: ROR-gamma binding; EC50, SPA, 15 nM [3H]-25-Hydroxycholesterol, RORgT LBD 12 nM
# [3] = tested on: IL-17A in Human peripheral mononuclear cells; test: Human PBMC IL-17A assay; type: cell-based; settings: read-out: Human PBMC IL-17a; EC50, antiCD3/antiCD28-coated beads, 3 days, alpha-LISA
smiles,measurement,setting,value
Cc1c(CN2CCN(C(=O)OC(C)C)[C@@H](C)C2)cc(Cl)cc1Nc1nnc(C2COCCN2)o1 (stereo partly drawn),EC50,[1],270 nM
same,EC50,[2],55.9 nM
same,EC50,[3],59.8 nM
